Measured values taken from patent publication US6403631B1, “Method and compositions for enhancing pregnancy success in an animal” (Equitech Laboratories, Inc., priority 1995, dated 2002).

Tested on: corpora lutea segments from cycling mares
Assay: In vitro progesterone production by corpus luteum segments (Example 8)
Type: cell-based
Conditions: 100 ng hCG vs absence of hCG; p=0.033
Experimental: Corpus luteum tissue was collected surgically and was dissected into segments approximately 2×2 mm^2. Segments were incubated in the following manner: [table] At completion of culture, segments were frozen until assayed for DNA content. All media progesterone concentrations were subsequently adjusted for DNA content of the appropriate segment.

hCG: human chorionic gonadotropin (hCG), supplement of luteal tissue culture
media progesterone concentrations, adjusted for DNA content: significantly higher
